Test results: paper PMC10864275
pKd: −log10 of the molar value.

Sequences of proteins named here, by UniProt entry; tags and fusion partners are left off. A change or cut given only in a name is not applied to a line headed by its entry.
UniProt P07700: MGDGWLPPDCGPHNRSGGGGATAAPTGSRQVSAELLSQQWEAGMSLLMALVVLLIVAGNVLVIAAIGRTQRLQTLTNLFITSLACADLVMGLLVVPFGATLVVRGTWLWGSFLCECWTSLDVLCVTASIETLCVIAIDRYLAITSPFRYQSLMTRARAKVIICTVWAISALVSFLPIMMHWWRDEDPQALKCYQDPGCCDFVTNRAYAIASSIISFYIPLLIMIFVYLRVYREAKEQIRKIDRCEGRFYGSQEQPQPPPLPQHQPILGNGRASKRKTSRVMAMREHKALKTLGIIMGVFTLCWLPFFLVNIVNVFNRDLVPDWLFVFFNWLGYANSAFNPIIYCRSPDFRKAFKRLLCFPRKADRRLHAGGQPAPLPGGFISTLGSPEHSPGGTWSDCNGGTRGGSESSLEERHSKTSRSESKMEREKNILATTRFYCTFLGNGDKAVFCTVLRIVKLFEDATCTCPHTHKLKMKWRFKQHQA

Target: avi-β1AR-W (turkey β1-adrenergic receptor β1AR-MetΔ5, thermostabilised with E130W, N-terminal biotinylated avi-tag) (turkey) (UniProt P07700)
Experiment: BLI; biotinylated avi-tagged receptor in LMNG immobilised on streptavidin biosensors; 500 μM salbutamol (partial agonist); mini-Gs in solution at a single concentration (1 or 2 μM); 20 mM TrisHCl pH 8.0, 150 mM NaCl, 15 mM MgCl2, 0.02% LMNG, 0.1% BSA; 25 °C; 1:1 monophasic local partial fit; one of n = 3 tips

pKd: 5.83
Substance: mini-Gs 393 C96A (domain or fragment)
